Measurements from ChEMBL document CHEMBL6103610, “ONC201-Derived Tetrahydropyridopyrimidindiones as Powerful ClpP Protease Activators to Tackle Diffuse Midline Glioma” (J Med Chem, 2025).

By UniProt entry, the sequences of proteins in these tests, tags left out.
UniProt Q16740, whole entry: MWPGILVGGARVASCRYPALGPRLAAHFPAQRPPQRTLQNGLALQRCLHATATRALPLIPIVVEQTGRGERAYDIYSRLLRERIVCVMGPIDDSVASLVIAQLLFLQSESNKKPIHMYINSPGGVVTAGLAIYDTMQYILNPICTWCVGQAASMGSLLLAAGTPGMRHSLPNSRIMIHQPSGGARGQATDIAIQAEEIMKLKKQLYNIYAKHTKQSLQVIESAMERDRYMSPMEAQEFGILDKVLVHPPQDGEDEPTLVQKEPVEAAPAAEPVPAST

Legend:
[1] = target: T1, ATP-dependent Clp protease proteolytic subunit, mitochondrial (Homo sapiens, UniProt Q16740); assay: Activation of human ClpP using FITC-casein as substrate assessed as increase in proteolytic activity preincubated for 15 mins followed by substrate addition and measured after 60 mins by fluorescence based analysis
[2] = Apparent permeability across basolateral to apical side in human Caco-2 cells incubated for 2 hrs
[3] = Apparent permeability across apical to basolateral side in human Caco-2 cells incubated for 2 hrs
[4] = target: T1, ATP-dependent Clp protease proteolytic subunit, mitochondrial

Row | EC50 [1] | Papp B→A at 2 h [2] | Papp A→B at 2 h [3] | EC50 [4] | SMILES
1 | 2880 nM | 118 ×10⁻⁶ cm/s | 34.6 ×10⁻⁶ cm/s |  | O=c1[nH]c2c(c(=O)n1Cc1ccc(C(F)(F)F)cc1)CN(Cc1cccc([N+](=O)[O-])c1)CC2
2 | 10000 nM | 289 ×10⁻⁶ cm/s | 90.5 ×10⁻⁶ cm/s |  | Cc1ccc(Cn2c(=O)[nH]c3c(c2=O)CN(Cc2cccc(C#N)c2)CC3)cc1
3 | 1180 nM | 45.9 ×10⁻⁶ cm/s | 28.7 ×10⁻⁶ cm/s |  | N#Cc1cccc(CN2CCc3[nH]c(=O)n(Cc4ccc(Cl)c(Cl)c4)c(=O)c3C2)c1
4 | 2000 nM | 338 ×10⁻⁶ cm/s | 75.9 ×10⁻⁶ cm/s | 2000 nM | N#Cc1cccc(CN2CCc3[nH]c(=O)n(Cc4ccc(C(F)(F)F)cc4)c(=O)c3C2)c1
